The values that follow are results of earlier work, collected in patent US20090117199A1, “Method of treatment of cancer” (priority 1998, published 2009).

The test system of the data set is melanoma. Conditions: IL therapy, prior reports; cited from earlier work.

With interleukin-2: IL interleukin-2 therapy, the “complete response (CR)” value is on record as 62%, the “objective response rate (ORR)” value is on record as 83% and the “partial response (PR)” value is 21%.
